# Test results published in PubChem BioAssay AID602405 (Broad Institute, 2012).
# The list shows a part of the results, in another mix than the full data. Some structures show a salt or complex split into parts, the way the source records it. Calls of active or inactive are those of the source. Cut-off read from the data, not from the text of the source: active = inhibition above about 16% (passing the limit was not always enough); inconclusive = no clear call, values can overlap the other calls; inactive = below that.
# Test system: UDP-N-acetylbacillosamine N-acetyltransferase PglD (Campylobacter jejuni)
# Assay: C. jejuni PglD acetyltransferase inhibitors, primary screen, biochemical, DTNB colorimetric, single point (AID 602405)
# Settings: purified PglD enzyme, DTNB colorimetric CoA detection; at 12.5 µM; stronger effect = higher value
row,Structure (SMILES),inhibition
1,O=[N+]([O-])c1cc([N+](=O)[O-])c(-c2cnn(-c3ccccc3)c2)c([N+](=O)[O-])c1,inactive: 3.06%
2,Cc1nc2ccc3ccccc3c2s1.O=[N+]([O-])c1cc([N+](=O)[O-])c(O)c([N+](=O)[O-])c1,inactive: -7.13%
3,O=[N+]([O-])c1cc([N+](=O)[O-])c(-n2nnc3ccccc32)c([N+](=O)[O-])c1,inactive: -13.1%
4,CN(Cc1cccnc1)C(=O)COc1ccc(Cl)c(Cl)c1.O=[N+]([O-])c1cc([N+](=O)[O-])c(O)c([N+](=O)[O-])c1,inactive: -2.5%
5,COc1ccccc1OP(C)(=O)Nc1c(C)cccc1C (stereo not given),inactive: 0.098%
6,CCCOc1ccc(NP(C)(=O)Oc2ccc(Cl)cc2)cc1 (stereo not given),inactive: 1.24%
7,O=[N+]([O-])c1cc([N+](=O)[O-])c(Nc2nnnn2CCO)c([N+](=O)[O-])c1,inactive: -2.48%
8,CC1=C2N=C(C=C3N=C(C(C)=C4[N-][C@@](C)([C@@H]5N=C1[C@](C)(CCC(=O)NC[C@@H](C)OP(=O)([O-])O[C@H]1[C@@H](O)[C@@H](n6cnc7cc(C)c(C)cc76)O[C@@H]1CO)[C@H]5CC(N)=O)[C@@](C)(CC(N)=O)[C@@H]4CCC(N)=O)[C@@](C)(CC(N)=O)[C@@H]3CCC(N)=O)C(C)(C)[C@@H]2CCC(N)=O.[C-]#N.[Co+3],inactive: -0.95%
9,CCOC(=O)C(CC)C1=NC(C)(C)Cc2ccccc21.O=[N+]([O-])c1cc([N+](=O)[O-])c(O)c([N+](=O)[O-])c1 (stereo not given),inactive: -0.419%
10,CC1=NCCc2c1[nH]c1ccccc21.O=[N+]([O-])c1cc([N+](=O)[O-])c(O)c([N+](=O)[O-])c1,inactive: -1.46%
11,O=C(O)c1cccc(Nc2c([N+](=O)[O-])cc([N+](=O)[O-])cc2[N+](=O)[O-])c1,inactive: -6.16%
12,Cc1ccc(C)c(NP(C)(=O)Oc2ccccc2)c1 (stereo not given),inactive: 2.33%
13,Cc1cc(C)cc(OP(C)(=O)Nc2ccccn2)c1 (stereo not given),inactive: 1.96%
14,COc1ccccc1OP(C)(=O)Nc1cccc(Br)c1 (stereo not given),inactive: -0.625%
15,Cc1cc(C)cc(OP(C)(=O)Nc2ccc(C)cc2C)c1 (stereo not given),inactive: 5.25%
16,COc1ccccc1OP(C)(=O)Nc1ccc(C)cc1 (stereo not given),inactive: -1.53%
17,Cc1ccc(NP(C)(=O)Oc2ccccc2)c(C)c1 (stereo not given),inactive: -0.307%
18,CCOC(=O)c1ccc(NP(C)(=O)Oc2ccccc2)cc1 (stereo not given),inactive: -2.12%
19,Cc1cc(C)cc(OP(C)(N)=O)c1 (stereo not given),inactive: 1.79%
20,COc1ccc(OP(C)(=O)Nc2cccc(F)c2)cc1 (stereo not given),inactive: -1.67%
21,O=[N+]([O-])c1cc([N+](=O)[O-])c(Nc2cccnc2)c([N+](=O)[O-])c1,inactive: -4.65%
22,CP(=S)(Nn1cnnc1)Oc1ccccc1 (stereo not given),inactive: 5.75%
23,CCOC(=O)c1ccc(NP(C)(=O)Oc2ccc(OC)cc2)cc1 (stereo not given),inactive: -6.78%
24,O=[N+]([O-])c1cc([N+](=O)[O-])c(O)c([N+](=O)[O-])c1.c1ccc(Oc2ccncc2)cc1,inactive: -0.595%

row,Structure (SMILES),inhibition
1,CCOP(C)(=S)SCC(=O)NC(C)C(=O)O (stereo not given),inactive: 5.01%
2,CP(=O)(Nc1ccccn1)Oc1ccc(Cl)cc1 (stereo not given),inactive: 3.98%
3,Cc1ccc(Nc2c([N+](=O)[O-])cc([N+](=O)[O-])cc2[N+](=O)[O-])cc1,inactive: -0.195%
4,Cc1cccc(C)c1OP(C)(=O)Nc1ccc(SC(F)(F)F)cc1 (stereo not given),inactive: -5.29%
5,CP(=O)(Nc1ccc(SC(F)(F)F)cc1)Oc1ccc(Cl)cc1 (stereo not given),inactive: 2.35%
6,CP(=O)(Oc1ccccc1)OC(c1ccccc1)C(F)(F)F (stereo not given),inactive: -3.6%
7,CCc1ccc(OP(C)(=O)N2CCN(c3ccc([N+](=O)[O-])cc3)CC2)cc1 (stereo not given),inactive: -16.7%
8,CC(C)(C)c1ccc(OP(C)(=O)O)cc1,inactive: -0.274%
9,COc1ccccc1OP(C)(=O)Nc1ccccc1Br (stereo not given),inactive: 4.29%
10,CP(=O)(Nc1ccc(Cl)cc1)Oc1ccc(F)cc1 (stereo not given),inactive: -0.155%
11,CCN(CC)CC(O)COC(=O)C(O)(c1ccccc1)C1CCCCC1 (stereo not given),inactive: 9.43%
12,COc1ccc(OP(C)(=O)Nc2ccc(Br)cc2)cc1 (stereo not given),inactive: -1.52%
13,COc1ccccc1OP(C)(=O)Nc1c(C)n(C)n(-c2ccccc2)c1=O (stereo not given),inactive: -4.92%
14,O=C(OCCCN1CCCC1)C(O)(c1ccccc1)C1CCCCC1 (stereo not given),inactive: -11%
15,CP(=O)(Oc1ccccc1)N1CCOC1=O (stereo not given),inactive: -0.786%
16,CCc1ccc(OP(C)(=O)Nc2cccnc2)cc1 (stereo not given),inactive: 3.98%
17,CCOC(=O)c1ccc(NP(C)(=O)Oc2ccc(Cl)cc2)cc1 (stereo not given),inactive: 8.79%
18,CP(=O)(OC12CC3CC(CC(C3)C1)C2)OC12CC3CC(CC(C3)C1)C2,inactive: 2.13%
19,CP(=O)(Nc1ccc(Cl)cc1Cl)Oc1ccccc1 (stereo not given),inactive: -2.62%
20,O=C1C(O)=C([N+](=O)[O-])C(=O)C(O)=C1[N+](=O)[O-],inactive: 6.17%
21,O=[N+]([O-])c1cc([N+](=O)[O-])c(Nc2ccccn2)c([N+](=O)[O-])c1,inactive: -7.6%
22,CP(=O)(Nc1ccccn1)Oc1ccccc1 (stereo not given),inactive: 10.4%
23,COc1ccccc1OP(C)(=O)Nc1ccc(C)cc1C (stereo not given),inactive: -0.534%
24,CCc1ccc(OP(C)(=O)O)cc1,inactive: -10.3%

row,Structure (SMILES),inhibition
1,COc1ccccc1OP(C)(=O)Nc1ccc(Br)cc1 (stereo not given),inactive: -0.278%
2,COc1ccc(OP(C)(=O)Nc2ccccn2)cc1 (stereo not given),inactive: 1.31%
3,CN(C)CCOC(=O)C(O)(c1ccccc1)C1CCCC1 (stereo not given),inactive: 0.356%
4,O=C(OCCN1CCN(CCOCc2ccccc2)CC1)C(O)(c1ccccc1)c1ccccc1,inactive: -3.16%
5,COc1ccc2c(c1O)-c1c(O)c(OC)cc3c1[C@H](C2)[N+](C)(C)CC3.O=[N+]([O-])c1cc([N+](=O)[O-])c([O-])c([N+](=O)[O-])c1[O-],inactive: 1.31%
6,O=[N+]([O-])c1cc([N+](=O)[O-])c(Nc2ccc(Cl)cc2)c([N+](=O)[O-])c1,inactive: 3.13%
7,CP(=O)(Nc1ccccc1F)Oc1ccccc1 (stereo not given),inactive: 2.23%
8,Cc1c([N+](=O)[O-])cc([N+](=O)[O-])c(Br)c1[N+](=O)[O-],inactive: -0.667%
9,CCN(CC)CCCOC(=O)C(O)(c1ccccc1)C1CCCCC1 (stereo not given),inactive: -1.72%
10,CP(=O)(Nc1ccccc1)Oc1ccc(F)cc1 (stereo not given),inactive: -2.24%
11,O=[N+]([O-])c1cc([N+](=O)[O-])c(OC2CCCCC2O)c([N+](=O)[O-])c1 (stereo not given),inactive: -4.26%
12,CCCCCOc1ccc(NP(C)(=O)Oc2ccc(Cl)cc2Cl)cc1 (stereo not given),inactive: -4.02%
13,CCOC(=O)c1ccc(NP(C)(=O)Oc2ccc(F)cc2)cc1 (stereo not given),inactive: 2.37%
14,O=[N+]([O-])c1ccc(OP2(=O)COCCO2)cc1 (stereo not given),inactive: 1.92%
15,Cc1cc(-c2cccc3ccccc23)c(C)cn1.O=[N+]([O-])c1cc([N+](=O)[O-])c(O)c([N+](=O)[O-])c1,inactive: -1.79%
16,Cc1c(C(c2ccc3c(c2)OCO3)c2c(C)n(C)n(-c3ccccc3)c2=O)c(=O)n(-c2ccccc2)n1C.O=[N+]([O-])c1cc([N+](=O)[O-])c(O)c([N+](=O)[O-])c1,inactive: -5.79%
17,COc1ccc(OP(C)(=O)Nc2cccc(Br)c2)cc1 (stereo not given),inactive: 1.47%
18,CN(C)CCOC(=O)C(O)(c1ccccc1)C1CCCCC1 (stereo not given),inactive: 3.64%
19,COc1ccc(NP(C)(=O)Oc2ccccc2OC)cc1 (stereo not given),inactive: -0.913%
20,CP(=O)(Nc1ccc2c(c1)OCCO2)Oc1ccccc1 (stereo not given),inactive: 4.18%
21,Cc1ccccc1NP(C)(=O)Nc1ccccc1C,inactive: -1.23%
22,CCOP(C)(=S)SCC(=O)NC(C)(CC)C(=O)O (stereo not given),inactive: 0.764%
